Binding of CDR-mutated scFvs to a peptide of the spike HR2 region

All variants were tested on one target, the spike HR2 peptide PDVDLGDISGINAS (SARS-CoV-2).

Ab-14 is the parent antibody, in scFv form: VH, then a 15-residue (Gly4Ser)3 linker, then VL. The heavy chain is unchanged in all variants.
VH: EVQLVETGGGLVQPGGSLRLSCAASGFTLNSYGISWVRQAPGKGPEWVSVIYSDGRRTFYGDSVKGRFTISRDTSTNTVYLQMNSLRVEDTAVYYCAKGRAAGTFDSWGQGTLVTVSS
VL: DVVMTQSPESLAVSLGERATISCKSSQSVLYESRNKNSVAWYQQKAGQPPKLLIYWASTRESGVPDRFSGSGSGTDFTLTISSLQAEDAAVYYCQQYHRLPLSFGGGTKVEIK

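Phage display of a naive human antibody library on the peptide gave the parent. This is the validation round: designs drawn from the data on random variants, tested in the same kind of assay. Several design methods are mixed in this list. The scFvs were displayed on barcoded MATa yeast, the peptide on MATalpha yeast. Mating (16 h, 30 °C) was followed by selection of diploids and sequencing of their barcodes. Read counts were normalised to the haploid input and turned into Kd by a linear fit to BCL2-family pairs of known affinity, for each replicate. Mating was done six times.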

The parent's light chain CDRs are KSSQSVLYESRNKNSVA, WASTRES, QQYHRLPLS; each variant's own CDRs replace them letter for letter.
Variants here have more than six changes.
Values are log10 of the apparent Kd in nM; lower means stronger binding.
Averages over replicates are reported, and they cover detected replicates only.
"ND" marks a missing value. The strain was present, yet no cells mated with the target were sequenced in that replicate, which points to weak or no binding.
Nonspecific signal, from three strains lacking the peptide, appeared in 4% of pairings of all light chain designs, centred on 2.64 (5% of these signals below 1.59); values are not corrected for it.
The parent sequence was in this pool as ten entries: three were never detected, three once, and four in most replicates, with averages from 0.34 to 2.37.
Values of this round are not directly comparable with the first-round values of the same sequences.
The authors averaged sequences with at least three values out of six and counted those with two or fewer as poor binders.

With KIMQSYLGEMRNCNSVA / NASQRES / QQYHRLPLS the result was 1.44, 0.99, 0.60, 1.03, 1.49, 1.17 (mean 1.12). The variant TISQSWLYESFNKNNVA / EMSTREN / QDYDRLPLS gave 0.16, 0.26, 0.04, 0.05, 0.02, 0.05 (mean 0.10). With SFSQQVLYESVHKNNVA / QTSTREE / QQYDHLPLS the result was 1.33, 1.01, 0.16, 0.26, 1.03, 1.22 (mean 0.83). For KVSDMMAFLSRNRNSVA / DNSTRGE / QQYHRLPLS, the assay gave 0.01, 0.18, -0.32, -0.13, -0.16, 0.27 (mean -0.03). For SLRLKELGMSYNANQVA / DSENRIK / QQYYRLPLM, the assay gave 1.12, 1.19, 1.17, 0.89, 0.96, 1.13 (mean 1.08). The variant HLSMLALSESVKHNNVA / ENSTREN / QQYDRLPLS showed 2.24, 2.42, ND, ND, ND, ND (mean 2.33). The variant KISQMVNYESTHIQAVA / QMSTREE / QQYFRLPLS gave ND, 0.48, 0.70, 0.14, 0.66, 2.65 (mean 0.93). The variant KLQNFSQEDNKMWNNVA / DMTMVHT / QQYNRLPLE gave 2.46, ND, ND, ND, ND, 1.43 (mean 1.94).

With QFDLFENYQGMQNANIA / GATNRHT / QQYQKLPLS the result was 0.03, 0.08, -0.09, -0.22, -0.18, -0.14 (mean -0.09). For KLSPWYFDSYGNYQSVA / ENEATSN / QQYSLLPLS, the assay gave ND, ND, 1.80, ND, 0.79, 1.63 (mean 1.41). The variant MISQLMNMGQFAINSVA / QASIRNQ / QQYDRLPLV showed ND, 1.54, 1.71, 1.39, 1.49, 2.02 (mean 1.63). For AVSFSHLYSSRNKNSVA / EASTREQ / QQYHRLPLS, the assay gave 0.06, -0.10, -0.12, -0.30, -0.05, 0.04 (mean -0.08). The variant KLTSITGTEKVRGNNVA / EMETRED / QQYNRLPLS gave 1.13, 1.46, 0.78, 1.36, 0.74, 1.22 (mean 1.11). With KFSQMVNSMSVSHSAVA / EMSTRPE / QQYNRLPLS the result was 0.34, 0.47, -0.15, 0.54, 0.16, 0.15 (mean 0.25). With FMEMDFDGNDVNRNSIA / SSEVVTR / QHYARLPLS the result was ND, ND, ND, ND, ND, ND. With KVEQSNPYESRNANSVA / NASQRES / QQYHRLPLS the result was -0.01, 0.33, -0.57, 0.26, 0.24, 0.56 (mean 0.13).

The variant TISQMTSWMSNKKNNVA / EVSTREA / QQYDRLPLM gave 2.73, ND, ND, 0.40, 0.26, 1.70 (mean 1.27). For TISQMFLGESRWRNSVA / QASTRES / QSYDRLPLS, the assay gave 1.50, 1.59, 1.43, 1.16, 1.38, 1.86 (mean 1.49). For KVSQSFEYEDRNKNSVA / QASQRCS / QQYHRLPLS, the assay gave 0.38, 0.44, 0.25, 0.52, 0.36, 0.29 (mean 0.37). The variant SLHLYTNVEENNNNSIA / EKSYRAY / QQYAHLPLV showed 1.56, 1.33, 0.87, 1.41, 1.25, 1.42 (mean 1.31). For KLSQQDEYESRNKNSVA / QASVREQ / QQYHRLPLS, the assay gave 0.03, -0.04, -0.21, -0.23, -0.14, 0.11 (mean -0.08). With HVSEMIFAQMKMRNSVA / ENSTRES / QQYDRLPLS the result was ND, ND, ND, ND, ND, ND. With MLKMENEEFNFDKNSVA / EAVEKES / QQYHRLPIT the result was ND, ND, ND, 1.75, 1.88, 1.92 (mean 1.85). The variant KLTMITGLEKVSKNNVA / EMETREE / QQYNRLPLS showed -0.02, -0.07, -0.12, -0.36, -0.21, -0.04 (mean -0.14).

For SIRQVGCDNQRNHSNIA / DATQIEK / QQYSMLPLS, the assay gave 0.00, -0.07, 0.05, 0.19, -0.01, 0.10 (mean 0.04). With KISQMVRVGATVSNSIA / EEVTRAK / QQYHRLPLS the result was ND, ND, ND, ND, ND, ND. The variant RLTNEFFKEMERKNSVA / HTDQRCM / QQYFRLPLI showed 1.37, 0.73, 0.80, 0.94, 0.75, 0.97 (mean 0.93). With TLTQVQGMESHNKDNVA / DLSTRGN / QQYHRLPLS the result was 0.86, 0.64, 0.76, 0.58, 0.72, 0.82 (mean 0.73). With KVMQSMWYESRNQNSVA / HASMREQ / QQYHRLPLQ the result was 0.53, 0.43, 0.50, 0.27, 0.35, 0.51 (mean 0.43). With HLSAMSVTETVKSRNVA / ENSTREQ / QQYDRLPLA the result was ND, 2.17, 2.04, 2.85, 2.17, 3.43 (mean 2.53). With LWSQSELLESRNHNSVA / DASTRCS / QQYHRLPLS the result was 0.50, 0.23, 0.25, -0.20, -0.14, -0.14 (mean 0.08). The variant KIGMQVTYESTVNNAIA / QMTTREE / QQYHRLPLS gave 0.24, 0.57, -0.39, 0.35, -0.10, 0.37 (mean 0.17).

The variant IVSQLMLWGYTAKNSIA / EAQTRLN / QQYERLPLF gave ND, ND, ND, ND, 3.31, ND. The variant KMTKQEQSIGSHQANIA / DSNKITD / QQYYRLPLT gave -0.01, -0.12, -0.23, -0.28, -0.35, -0.10 (mean -0.18). The variant KVSPEWWYWSRNKASVA / HASTRES / QQYHRLPLS showed 2.40, 2.23, 1.77, 2.53, 2.00, 2.49 (mean 2.24). With KLSMITGHMSMSRNNVA / EMATREN / QQYERLPLS the result was 0.67, 0.57, 0.58, 0.45, 0.61, 0.78 (mean 0.61). The variant KIRVHNLMFYQNENSIA / GQSNRAY / QQYYHLPLT gave 2.61, 2.74, 1.94, ND, 1.30, 2.54 (mean 2.23). For NLSYLQGEPTNSVNNVA / QTSKRAP / QYYQRLPLC, the assay gave 0.72, 0.50, 0.41, 0.57, 0.62, 0.72 (mean 0.59). The variant KISMLHNQTFEQSNNVA / EMVTRMK / QQYNRLPLS showed 1.38, 1.27, 0.96, 1.24, 1.17, 1.07 (mean 1.18). The variant KLQQGYWYESRNKNSVA / MASTREV / QQYWRLPLS gave 1.26, 1.30, 1.59, 1.91, 2.08, 1.47 (mean 1.60).

The variant MISQSFLIGSRAKNSVA / QTSERES / QQYDRLPLS showed -0.36, -0.04, -0.19, -0.36, -0.44, -0.36 (mean -0.29). For RMDMALPHAHNNINSIA / EGAIVAD / QQYDRLPLW, the assay gave 0.25, 1.21, 0.15, 0.35, 0.20, 0.33 (mean 0.42). With HITYGMQVMGRHSKSIA / QAETREK / QQYDRLPLV the result was 0.99, 0.98, 0.94, 1.08, 1.00, 0.88 (mean 0.98). The variant KVSEFMRGLMSRQDSIA / DNVTRNN / QQYDRLPLS gave 1.84, 3.91, 1.23, 1.96, 2.12, 1.54 (mean 2.10). With MMSLCQNGYYQQNNSIA / DVNERAM / QQYGRLPLV the result was 2.07, 3.30, 1.96, ND, 2.32, ND (mean 2.41). The variant QLDLKMNEQGMQPSAIA / GATNRFT / QQYQKLPLS showed -0.05, -0.08, -0.03, -0.12, -0.08, -0.02 (mean -0.06).

The first 3 variants above that were never detected:

CDR-L1,CDR-L2,CDR-L3,"log10 Kd, replicates","mean, log10 nM"
FMEMDFDGNDVNRNSIA,SSEVVTR,QHYARLPLS,"ND, ND, ND, ND, ND, ND",ND
HVSEMIFAQMKMRNSVA,ENSTRES,QQYDRLPLS,"ND, ND, ND, ND, ND, ND",ND
KISQMVRVGATVSNSIA,EEVTRAK,QQYHRLPLS,"ND, ND, ND, ND, ND, ND",ND

Data: MIT Lincoln Laboratory AlphaSeq set, Li et al. 2023, doi:10.1038/s41467-023-39022-2, as distributed in FLAb.